scFv variants of Ab-91 (heavy chain) against a SARS-CoV-2 spike peptide

Target peptide (SARS-CoV-2 spike, HR2 region): PDVDLGDISGINAS

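The starting antibody came from a phage panning campaign against this peptide. In library AAYL51, one, two or three CDR residues were substituted; doubles and triples were drawn at random. Affinity was read by AlphaSeq, a pooled yeast mating assay with surface-displayed partners. Mating (16 h, 30 °C) was followed by selection of diploids and sequencing of their barcodes. A regression on co-assayed BCL2-family reference pairs converts the normalised counts of each replicate to an apparent Kd. Mating was done three times.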

The variants keep the light chain, the linker and the frameworks of Ab-91 (scFv order VL, three GGGGS repeats, VH).
VL: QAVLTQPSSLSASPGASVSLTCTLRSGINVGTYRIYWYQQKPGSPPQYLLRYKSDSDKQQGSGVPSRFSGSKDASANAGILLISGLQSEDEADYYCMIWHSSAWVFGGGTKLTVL
VH: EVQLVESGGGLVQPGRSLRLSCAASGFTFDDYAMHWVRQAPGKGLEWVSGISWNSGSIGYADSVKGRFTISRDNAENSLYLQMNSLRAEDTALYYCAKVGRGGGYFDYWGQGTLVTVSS

Each variant is given by its three heavy chain CDRs, as the data file delimits them; those of the parent are GFTFDDYAMH, GISWNSGSIGYADSVK, VGRGGGYFDY.
Scale: log10 of Kd in nM, estimated from mating counts; low values are strong binders.
A mean of the replicates is given; it leaves out those without a signal.
"nd" means that the variant was in the library but no mating with the target was seen in any replicate; the authors take this as a sign of poor binding, and no number exists.
Background: pairings of library AAYL51 with three empty control strains gave a value in 21% of cases (median 4.54, 5th percentile 3.26). Values in that range, when seen in few replicates, are hard to tell from nonspecific mating. The control count says in how many pairings with the empty strains this scFv gave a signal.

CDR-H1,CDR-H2,CDR-H3,"log10 Kd (nM), mean",detected,empty controls
GFTFRDYAMH,YISWNSTSIGYADSVK,VGRGGGYFDY,5.00,3 of 3,7 of 9
GFTFDDYAIH,GISWNSGSIGYADSVK,VGRGGGYFDF,4.63,3 of 3,2 of 9
GFAFDDYAMH,GISWNSGSIEYADSVK,VGRGHGYFDY,3.34,2 of 3,1 of 9
GFTFDDYAMH,GRSWNSGSIGYADSVK,VGRGGGYSDQ,nd,0 of 3,2 of 9
GFTFDDMAMH,GISWNNGSIGYADSVK,HGRGGGYFDY,nd,0 of 3,0 of 9
GFTYDDYAMH,GIDWNSGSIGYFDSVK,VGRGGGYFDY,4.44,2 of 3,2 of 9
GFTFDDYAMK,GISTRSGSIGYADSVK,VGRGGGYFDY,nd,0 of 3,0 of 9
GFTFDDYAMH,IIFWNSGSIGYAKSVK,VGRGGGYFDY,5.65,1 of 3,2 of 9
GFTFDDYNMH,GISWNSFSIGYADSVK,VGRGGGYFDY,4.97,1 of 3,1 of 9
VFTFDDYAMH,GISWNAGSIGYADSVK,VGRGGGYFDY,1.00,3 of 3,3 of 9
GFTFDDYFMH,GISTNSGSMGYADSVK,VGRGGGYFDY,nd,0 of 3,2 of 9
GFTFDDYAMH,GISWNSGIIGYADDVK,YGRGGGYFDY,nd,0 of 3,2 of 9
GFMFDDYAMH,GISWNSGSDGYADSVK,VGRGGGYMDY,5.05,2 of 3,7 of 9
GFTFDDYAMH,GISWNSGNGGYADSVK,VGRGGGYFDA,3.76,2 of 3,0 of 9
GFTFDDYAMH,GISWKSGSWGYADSVD,VGRGGGYFDY,4.27,2 of 3,3 of 9
GFTFDDYRMH,GISWNSGSIGYADEVK,VWRGGGYFDY,5.27,2 of 3,4 of 9
GFTFDDYAMH,NISWNSGPIGYADSVK,VGRGGGYFGY,4.69,2 of 3,2 of 9
IFTFDDYAMH,GISWNSGSIGYADSVK,SGRGGGAFDY,nd,0 of 3,1 of 9
GKTFDDYAMI,GISWNSGSIGYADSMK,VGRGGGYFDY,4.84,2 of 3,5 of 9
GFTFYDYAMH,GISWNSLSIGYADDVK,VGRGGGYFDY,2.25,3 of 3,2 of 9
GFTFDDYAMH,GISWNSGSIGYADSVK,MGRIGGYFDY,0.74,3 of 3,0 of 9
DFTFDDYGMH,GISWNSGSIGYADSVK,VGRGGMYFDY,5.03,3 of 3,5 of 9
GQTFDDYAMH,GISWNSGSIGYADSVK,VGRGGGYFDK,3.36,3 of 3,3 of 9
GFTFDDYAMY,GGSWNSGSIGYADSVK,VHRGGGYFDY,4.46,3 of 3,2 of 9
QFTFDDYAMH,GISWNSGSIGEPDSVK,VGRGGGYFDY,4.60,1 of 3,0 of 9
GFRFDDYAMH,PIWWNSGSIGYADSVK,VGRGGGYFDY,nd,0 of 3,0 of 9
GFTFDDYAMH,GISWNSGSIGGAFSVK,VGRGGPYFDY,4.79,1 of 3,0 of 9
GFTFDDDAGH,GISWNWGSIGYADSVK,VGRGGGYFDY,nd,0 of 3,0 of 9

Further variants, results first:

"log10 Kd (nM), mean",detected,empty controls,CDR-H1,CDR-H2,CDR-H3
5.26,3 of 3,8 of 9,GFTFDDYAMH,GISWNSGRIMYADSVK,VGRGGLYFDY
4.96,1 of 3,4 of 9,GPTFDDYAMH,GISWNSGSIGYADSVK,VGRDGGYDDY
1.71,3 of 3,3 of 9,GFTFDDYAMH,GISWNSGSIGYASSVK,VGKGGGYFSY
0.54,3 of 3,4 of 9,GFTFDCYAMH,GISWNSGSVGYADSVE,VGRGGGYFDY
nd,0 of 3,5 of 9,WFTFDDYLMH,GISWNSGSIGYADSVK,VGRGGGYFEY
5.07,2 of 3,3 of 9,GFTFWDYAMH,GISWNRGSIGYADSVK,VGRGGGYFYY
nd,0 of 3,0 of 9,GFTFDDYAMH,GISPNSGSIGWADSVM,VGRGGGYFDY
nd,0 of 3,0 of 9,GFTFDDYAMH,GISWNSGSIGYADLVK,VGRAGVYFDY
nd,0 of 3,0 of 9,GFTYDDYAMH,GISWNSRSIGYADSVK,VGRGGGYFDT
nd,0 of 3,1 of 9,GFTFDDYAMH,GISWNSGSIGYADSFK,VGGGGGYFHY
nd,0 of 3,1 of 9,GFIFDDYANH,GISWNSGSIGYADSVK,VGRGGNYFDY
3.85,1 of 3,2 of 9,GFTFDDEAMH,GISWNSGSIGMADFVK,VGRGGGYFDY
4.71,2 of 3,3 of 9,GFTFDDYAMH,GISNNSGSIEYADSVK,VGRGGGYFDT
2.35,2 of 3,0 of 9,GFTFYDYAMH,GISWNSDSIGYADSTK,VGRGGGYFDY
nd,0 of 3,0 of 9,GFTFDDYAMH,GISWNSGWIGYADSVK,VARGGFYFDY
nd,0 of 3,0 of 9,GFTFDDYAMR,GISWNSGSIEYAVSVK,VGRGGGYFDY
5.78,3 of 3,6 of 9,GFTFDDYAMH,GISWNSGSIGYADSVK,VGRHGGYIDY
nd,0 of 3,2 of 9,GTTFDDYAMH,GISWNSGSIGYACSVK,VGRTGGYFDY
nd,0 of 3,0 of 9,GPTFDDYAMH,GISWNSGSIHYSDSVK,VGRGGGYFDY
nd,0 of 3,1 of 9,GFTFDDYAMH,RISWNSGSIGYADSVK,VGRGTGYRDY
nd,0 of 3,0 of 9,GFTFDDYAMH,GISWNSGSINYAKSVK,VGRGGGDFDY
5.07,2 of 3,3 of 9,GFTFDDYAMK,GISWNSGYIGYADMVK,VGRGGGYFDY
4.55,2 of 3,4 of 9,GFTFADYAML,GISWNSGSIGYADSIK,VGRGGGYFDY
5.65,3 of 3,6 of 9,IFTFDDYAMH,GYSWNSGSIGYADSVK,VWRGGGYFDY
5.17,3 of 3,5 of 9,WFTFDDYAMH,GIAWQSGSIGYADSVK,VGRGGGYFDY
5.28,1 of 3,3 of 9,GFTFDDYAMH,GASWNSGSIYYADSVK,VGMGGGYFDY
nd,0 of 3,1 of 9,GFTFDDYAMH,GISWNSGSIGYADSVK,VGRGGVYFDH
nd,0 of 3,0 of 9,GFTFDDYAMH,GISWNKGSIGQADSVK,VGRRGGYFDY
4.49,2 of 3,3 of 9,GGTFDDYAMH,KISWNSGSIGYADSVK,VGRGGGYFYY

Source: Engelhart et al. 2022 (doi:10.1038/s41597-022-01779-4), MIT Lincoln Laboratory and A-Alpha Bio; data file from the FLAb repository.